Laboratory results taken from PMC11642940, “A New Demand for Improved Selectivity and Potency of Cyanine Dyes as Antiproliferative Agents Against Colorectal Cancer Cells” (Molecules, 2024).

By UniProt entry, the sequences of proteins in these tests, tags left out. Where a name states a change or a piece, a line headed by the entry shows the natural chain unless it says otherwise.
UniProt P11388: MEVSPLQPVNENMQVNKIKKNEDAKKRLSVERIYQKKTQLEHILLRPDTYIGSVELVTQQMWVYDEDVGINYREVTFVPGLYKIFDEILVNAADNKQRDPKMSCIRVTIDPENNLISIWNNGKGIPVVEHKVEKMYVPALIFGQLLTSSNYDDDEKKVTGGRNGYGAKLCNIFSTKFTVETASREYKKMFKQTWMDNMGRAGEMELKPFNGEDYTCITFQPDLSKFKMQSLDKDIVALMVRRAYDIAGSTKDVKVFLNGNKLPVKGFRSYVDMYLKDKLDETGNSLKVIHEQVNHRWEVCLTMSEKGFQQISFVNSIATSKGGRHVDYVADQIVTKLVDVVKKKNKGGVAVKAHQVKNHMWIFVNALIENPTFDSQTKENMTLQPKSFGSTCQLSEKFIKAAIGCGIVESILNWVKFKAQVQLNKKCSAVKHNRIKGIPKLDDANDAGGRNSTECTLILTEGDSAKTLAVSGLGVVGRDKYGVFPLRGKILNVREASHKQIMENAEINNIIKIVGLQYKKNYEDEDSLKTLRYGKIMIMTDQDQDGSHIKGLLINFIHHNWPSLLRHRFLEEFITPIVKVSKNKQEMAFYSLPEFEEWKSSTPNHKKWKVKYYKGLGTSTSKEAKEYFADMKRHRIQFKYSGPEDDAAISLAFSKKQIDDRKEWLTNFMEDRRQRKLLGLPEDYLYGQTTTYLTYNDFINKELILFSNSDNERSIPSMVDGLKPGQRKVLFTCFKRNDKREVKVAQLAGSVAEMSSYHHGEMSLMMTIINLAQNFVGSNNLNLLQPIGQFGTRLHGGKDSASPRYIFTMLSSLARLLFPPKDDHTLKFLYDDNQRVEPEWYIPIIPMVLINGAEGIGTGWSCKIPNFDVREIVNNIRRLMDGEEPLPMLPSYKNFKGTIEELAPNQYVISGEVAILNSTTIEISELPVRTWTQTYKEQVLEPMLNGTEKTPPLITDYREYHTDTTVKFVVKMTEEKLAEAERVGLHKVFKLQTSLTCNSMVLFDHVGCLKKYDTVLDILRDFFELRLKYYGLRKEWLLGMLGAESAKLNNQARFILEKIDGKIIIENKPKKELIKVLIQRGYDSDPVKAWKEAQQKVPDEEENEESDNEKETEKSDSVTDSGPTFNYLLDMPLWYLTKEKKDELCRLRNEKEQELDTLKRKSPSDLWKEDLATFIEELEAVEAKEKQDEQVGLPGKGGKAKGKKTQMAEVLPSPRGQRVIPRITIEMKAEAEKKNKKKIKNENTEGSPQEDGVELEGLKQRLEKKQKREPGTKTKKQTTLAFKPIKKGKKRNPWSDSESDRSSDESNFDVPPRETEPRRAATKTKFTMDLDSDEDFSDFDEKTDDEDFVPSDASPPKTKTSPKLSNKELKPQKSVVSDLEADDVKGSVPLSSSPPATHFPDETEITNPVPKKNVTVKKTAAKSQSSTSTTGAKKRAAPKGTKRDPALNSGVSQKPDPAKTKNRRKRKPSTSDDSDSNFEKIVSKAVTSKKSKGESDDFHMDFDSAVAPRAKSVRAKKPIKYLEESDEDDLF

Biological target: T1, topoisomerase II (Topo II) (Homo sapiens, UniProt P11388)
T1 construct: purchased TopoGEN Inc. (Buena Vista, CO, USA) 1009-1
Assay: Topoisomerase II inhibitory assay (pRYG DNA relaxation, agarose gel)
Assay type: biochemical
Details: 50 µM, 5.0 units Topo II, 250.0 ng pRYG DNA, mean ± SD of two assays

SMILES: COc1cc([C@@H]2c3cc4c(cc3[C@@H](O[C@@H]3O[C@@H]5CO[C@@H](C)O[C@H]5[C@H](O)[C@H]3O)[C@H]3COC(=O)[C@H]23)OCO4)cc(OC)c1O [VP-16, etoposide, reference compound]
- relative intensity of relaxed DNA band (normalized to No drug sample): 0.75 ± 0.04
